By UniProt entry, the sequences of proteins in these tests, tags left out. Where a name states a change or a piece, a line headed by the entry shows the natural chain unless it says otherwise.
UniProt P93836: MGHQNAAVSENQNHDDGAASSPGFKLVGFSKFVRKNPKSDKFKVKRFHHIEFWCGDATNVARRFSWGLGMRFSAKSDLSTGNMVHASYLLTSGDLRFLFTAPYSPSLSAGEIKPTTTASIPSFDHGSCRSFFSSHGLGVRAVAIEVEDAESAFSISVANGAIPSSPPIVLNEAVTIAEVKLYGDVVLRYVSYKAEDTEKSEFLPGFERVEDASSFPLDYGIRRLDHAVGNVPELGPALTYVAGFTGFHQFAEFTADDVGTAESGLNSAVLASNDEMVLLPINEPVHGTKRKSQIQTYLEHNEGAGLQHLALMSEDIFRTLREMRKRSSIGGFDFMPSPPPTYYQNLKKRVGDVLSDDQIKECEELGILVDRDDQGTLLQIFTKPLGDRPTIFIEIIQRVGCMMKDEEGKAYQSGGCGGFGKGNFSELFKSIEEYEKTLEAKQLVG
UniProt O48604, whole entry R146V/R147D/R148G/A164G: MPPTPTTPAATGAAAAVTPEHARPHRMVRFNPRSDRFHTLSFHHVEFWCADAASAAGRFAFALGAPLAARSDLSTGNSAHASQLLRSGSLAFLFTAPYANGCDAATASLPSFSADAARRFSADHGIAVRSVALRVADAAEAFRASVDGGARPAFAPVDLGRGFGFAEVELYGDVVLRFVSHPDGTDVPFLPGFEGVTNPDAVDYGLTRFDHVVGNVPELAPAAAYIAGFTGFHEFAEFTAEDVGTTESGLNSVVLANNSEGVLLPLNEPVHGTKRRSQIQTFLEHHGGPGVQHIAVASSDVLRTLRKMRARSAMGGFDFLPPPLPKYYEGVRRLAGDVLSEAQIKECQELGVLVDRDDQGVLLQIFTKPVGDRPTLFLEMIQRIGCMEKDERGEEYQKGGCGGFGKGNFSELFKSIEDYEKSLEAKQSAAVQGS

According to patent publication US11230717B2, “Plants having increased tolerance to herbicides” (BASF SE, priority 2013, dated 2022):

Tests used:
[1] = test system: Zea mays HPPD mutant Seq ID 67; assay: HPPD activity assay, in vitro characterization; format: biochemical; conditions: normalized to Hordeum SEQ ID NO:2
Procedure: (§1) HPPD produces homogentisic acid and CO2 from 4-hydroxyphenylpyruvate (4-HPP) and O2. The activity assay for HPPD is based on the analysis of homogentisic acid by reversed phase HPLC.
(§2) The assay mixture can contain 150 mM potassium phosphate buffer pH 7.0, 50 mM L-ascorbic acid, 100 μM Catalase (Sigma-Aldrich), 1 μM FeSO4 and 0.2 units of purified HPPD enzyme in a total volume of 505 μl. 1 unit is defined as the amount of enzyme that is required to produce 1 nmol of HGA per minute at 20° C.
(§3) After a preincubation of 30 min the reaction is started by adding 4-HPP to a final concentration of 0.05 mM. The reaction is allowed to proceed for 45 min at room temperature. The reaction is stopped by the addition of 50 μl of 4.5 M phosphoric acid. The sample is filtered using a […] pore size PVDF filtration device.
(§4) 5 μl of the cleared sample is analyzed on an UPLC HSS T3 column (particle size 1.8 μm, dimensions 2,1×50 mm; Waters) by isocratic elution using 90% 20 mM NaH2PO4 pH 2.2, 10% methanol (v/v).
(§5) HGA is detected electrochemically at 750 mV (mode: DC; polarity: positive) and quantified by integrating peak areas (Empower software; Waters).
(§6) Inhibitors are dissolved in DMSO (dimethylsulfoxide) to a concentration of 0.5 mM. From this stock solution serial five-fold dilutions are prepared in DMSO, which are used in the assay. The respective inhibitor solution accounts for 1% of the assay volume. Thus, final inhibitor concentrations range from […], respectively. Activities are normalized by setting the uninhibited enzyme activity to 100%. IC50 values are calculated using non-linear regression.
(§7) Using methods which are described in the above examples or well known in the art, purified, recombinant wildtype HPPD enzymes are characterized with respect to their kinetic properties and sensitivity towards HPPD inhibiting herbicides. Apparent michaelis constants (Km) and maximal reaction velocities (Vmax) are calculated by non-linear regression with the software GraphPad Prism 5 (GraphPad Software, La Jolla, USA) using a substrate inhibition model. Apparent kcat values are calculated from Vmax assuming 100% purity of the enzyme preparation. Weighted means (by standard error) of Km and IC50 values are calculated from at least three independent experiments. The Cheng-Prusoff equation for competitive inhibition (Cheng, Y. C.; Prusoff, W. H. Biochem Pharmacol 1973, 22, 3099-3108) is used to calculate dissociation constants (Ki). • Field performance of the HPPD enzyme, which is used as a herbicide tolerance trait, may depend not only on its lack of sensitivity towards HPPD inhibiting herbicides but also on its activity. To assess the potential performance of a herbicide tolerance trait a tolerance index (TI) is calculated using the following formula: […]
(§8) The reference SEQ ID NO:2 was included as a comparative control in a representative number of experiments and the values given in Table 12 are the average values from a number of experiments. The TI values given for various HPPD enzymes from different organisms are normalized to the value of the reference SEQ ID NO:2.

[2] = test system: Zea mays HPPD mutant Seq ID 69; assay: HPPD activity assay, in vitro characterization; format: biochemical; conditions: normalized to Hordeum SEQ ID NO:2
Procedure: as §1, §2, §3, §4, §5, §6, §7, §8

Rhodococcus HPPD1 = assay: HPPD activity assay, in vitro characterization; format: biochemical; conditions: normalized to Hordeum SEQ ID NO:2
Procedure: as §1, §2, §3, §4, §5, §6, §7, §8

Rhodococcus HPPD2 = assay: HPPD activity assay, in vitro characterization; format: biochemical; conditions: normalized to Hordeum SEQ ID NO:2
Procedure: as §1, §2, §3, §4, §5, §6, §7, §8

Lolium HPPD = assay: HPPD activity assay, in vitro characterization; format: biochemical; conditions: normalized to Hordeum SEQ ID NO:2
Procedure: as §1, §2, §3, §4, §5, §6, §7, §8

Kordia HPPD = assay: HPPD activity assay, in vitro characterization; format: biochemical; conditions: normalized to Hordeum SEQ ID NO:2
Procedure: as §1, §2, §3, §4, §5, §6, §7, §8

Arabidopsis HPPD = molecular target: T1, Arabidopsis HPPD (Arabidopsis thaliana, UniProt P93836); assay: HPPD activity assay (homogentisic acid by HPLC), in vitro characterization; format: biochemical
T1 construct: His6 (N); made in house; host or cells: E. coli BL21 (DE3)
Procedure: as §1, §2, §3, §4, §5
(§9) Inhibitors are dissolved in DMSO (dimethylsulfoxide) to a concentration of 0.5 mM. From this stock solution serial five-fold dilutions are prepared in DMSO, which are used in the assay. […] IC50 values are calculated using non-linear regression. […]

Picrophilus HPPD = assay: HPPD activity assay, in vitro characterization; format: biochemical, Picrophilus torridus; conditions: normalized to Hordeum SEQ ID NO:2
Procedure: as §1, §2, §3, §4, §5, §9

[3] = test system: transgenic Arabidopsis plants; assay: Greenhouse testing of transgenic Arabidopsis plants (T2), herbicide spray test; format: in vivo, Arabidopsis thaliana; conditions: Arabidopsis expressing SEQ ID NO:2 with L320H
Procedure: Transgenic plants expressing heterologous HPPD or HST enzymes are tested for tolerance against HPPD-inhibiting herbicides in greenhouse experiments.
For post emergence treatment, the test plants are first grown to a height of 3 to 15 cm, depending on the plant habit, and only then treated with the herbicides. For this purpose, the test plants are either sown directly and grown in the same containers, or they are first grown separately and transplanted into the test containers a few days prior to treatment. For testing of T0 plants, cuttings can be used. In the case of soybean plants, an optimal shoot for cutting is about 7.5 to 10 cm tall, with at least two nodes present. Each cutting is taken from the original transformant (mother plant) and dipped into rooting hormone powder (indole-3-butyric acid, IBA). The cutting is then placed in oasis wedges inside a bio-dome. Wild type cuttings are also taken simultaneously to serve as controls. The cuttings are kept in the bio-dome for 5-7 days and then transplanted to pots and then acclimated in the growth chamber for two more days. Subsequently, the cuttings are transferred to the greenhouse, acclimated for approximately 4 days, and then subjected to spray tests as indicated.
Additionally, T1 and T2 transgenic Arabidopsis plants can be tested for improved tolerance to HPPD-inhibiting herbicides in a greenhouse studies. […]

[4] = molecular target: T2, Hordeum HPPD (SEQ ID NO:2) (Hordeum vulgare, UniProt O48604, A164G/R146V/R147D/R148G); assay: HPPD activity assay, in vitro characterization; format: biochemical
T2 construct: subcloned into a modified pET24D (Novagen) expression vector resulting in N-terminally His-tagged expression constructs; His (N); made in house; host or cells: E. coli BL21 (DE3)
Procedure: as §1, §2, §3, §4, §5
Inhibitors are dissolved in DMSO (dimethylsulfoxide) to a concentration of 0.5 mM. From this stock solution serial five-fold dilutions are prepared in DMSO, which are used in the assay. […] IC50 values are calculated using non-linear regression.
Using methods which are described in the above examples or well known in the art, purified, recombinant wildtype HPPD enzymes are characterized with respect to their kinetic properties and sensitivity towards HPPD inhibiting herbicides. Apparent michaelis constants (Km) and maximal reaction velocities (Vmax) are calculated by non-linear regression with the software GraphPad Prism 5 (GraphPad Software, La Jolla, USA) using a substrate inhibition model. […] Weighted means (by standard error) of Km and IC50 values are calculated from at least three independent experiments. […] To assess the potential performance of a herbicide tolerance trait a tolerance index (TI) is calculated using the following formula: […]

Avena HPPD = assay: HPPD activity assay, in vitro characterization; format: biochemical, Avena sativa; conditions: normalized to Hordeum SEQ ID NO:2
Procedure: as §1, §2, §3, §4, §5, §9

For `CSc1c(Cl)cc(F)c(C(=O)Nc2nnnn2C)c1Cl` [Inhibitor 2, 2,4-dichloro-6-fluoro-3-methylsulfanyl-N-(1-methyltetrazol-5-yl)benzamide], the “Normalized tolerance index (TI)” value [1] was 12.3, the “Normalized tolerance index (TI)” value [2] was 3 and the “Normalized tolerance index (TI)” value (Rhodococcus HPPD1) was 0.4. For the same compound, the “Normalized tolerance index (TI)” value (Rhodococcus HPPD2) was 0.4, the “Normalized tolerance index (TI)” value (Lolium HPPD) was 3.0 and the “Normalized tolerance index (TI)” value (Kordia HPPD) was 0.4. For the same compound, the “Normalized tolerance index (TI)” value (Arabidopsis HPPD; Arabidopsis HPPD Wildtype (SEQ ID: 53), reference) was 1, the “TI (tolerance index)” value (Arabidopsis HPPD; Arabidopsis HPPD, not normalized) was 19.5E−3 and the “Normalized tolerance index (TI)” value (Picrophilus HPPD) was 0.4. The “resistance compared to untransformed wild-type plants” value [3] was “more resistant”, the “Normalized tolerance index (TI)” value ([4]; Hordeum HPPD Wild-type (SEQ ID NO: 2), reference of Table 16) was 1 and the “Normalized tolerance index (TI)” value ([4]; Hordeum HPPD, reference, normalized to SEQ ID NO:2) was 1. For the same compound, the “TI (tolerance index)” value ([4]; Hordeum HPPD, not normalized) was 5E−3 and the “Normalized tolerance index (TI)” value (Avena HPPD) was 3.8.
